Reference: US20160045158A1, “DEVICES, SYSTEMS, AND METHODS FOR TRANSDERMAL DELIVERY OF COMPOUNDS” (PROMETHEON PHARMA, LLC, priority 2013, published 2016)

Tested on: EpidermFT™ (MatTek) full thickness human skin equivalent tissues
Experiment: Transdermal flux/accumulation across EpidermFT full thickness human skin equivalents (Iso-Insulin ELISA of receptor fluid)
Format: in vitro ADME
Settings: TopiconDM™
Protocol: Proof-of-concept ex vivo studies of transdermal delivery of long-acting insulin analogues by a poloxamer 188, propylene glycol and lauracopram formulation designated TopiconDM™ were performed using metabolically active full thickness human skin equivalent (HSE) inserts from EpidermFT™ (MatTek) grown on a semi-permeable membrane that allows test compounds to pass through the tissue and accumulate in the receptor fluid on the other side. It is important to note that the term TopiconDM™ is a trademark, is not descriptive of the subject formulation, and is merely an indication of the source of the subject formulation. Thus, the use of the term TopiconDM™ herein shall not be used to affect any trademark rights associated with the term TopiconDM™. […]
To determine the feasibility of creating a 7-day (weekly) TopiconDM™ insulin glargine patch, a protocol was developed in which the tissue inserts were incubated in tissue culture maintenance medium (with serum). […] It was empirically determined that 50 microliters of the formulations was sufficient to cover the entire surface of the tissue inserts when applied directly to the center. […] Plasma insulin and insulin analogue accumulation in mIU/cm^2 (reflecting transdermal delivery across 0.6 cm^2 tissue surface area) was quantified using the Iso-Insulin ELISA Kit (Mercodia AB, Uppsala, Sweden). […]

Substance: regular insulin
- flux dose-response (10-50 U/0.6 cm^2, 5-day study, preliminary): clear dose-response
- saturation of flux (up to 50 U/0.6 cm^2): no saturation was observed at the highest dose
